Assay [1] has as its target T1, C5a receptor (Homo sapiens, UniProt P21730). Put plainly: Calcium Mobilization Assay (C5a-induced Ca2+ mobilization, FLIPR, differentiated U937 cells). The format is cell-based. As to conditions: read-out: C5a Induced Ca Mobil. Average IC50, 1.5 nM recombinant human C5a, 20 min pre-incubation, multiple values = duplicate experiments. On the technique in general: Calcium flux is commonly read through the fluorescence of an indicator in the cells.

Sequences of proteins named here, by UniProt entry; tags and fusion partners are left off.
UniProt P21730, whole entry: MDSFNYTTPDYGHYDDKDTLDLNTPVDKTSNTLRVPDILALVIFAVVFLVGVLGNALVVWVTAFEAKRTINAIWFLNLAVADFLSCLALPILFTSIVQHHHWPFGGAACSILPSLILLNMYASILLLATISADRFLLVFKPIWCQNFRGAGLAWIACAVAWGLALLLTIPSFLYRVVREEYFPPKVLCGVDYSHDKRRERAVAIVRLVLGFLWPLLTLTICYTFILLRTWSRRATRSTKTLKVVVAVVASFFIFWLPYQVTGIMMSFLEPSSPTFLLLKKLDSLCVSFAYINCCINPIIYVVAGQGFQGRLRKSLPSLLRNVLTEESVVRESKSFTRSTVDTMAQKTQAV

Assay [2] deals with T1, C5a receptor. Put plainly: [125I]-C5a Radioligand Binding Assay (competition binding, differentiated U937 cells).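 Also: cells preincubated with compound 30 min at room temperature, then 60 min at 4 °C with radioligand, bound counts read by scintillation, nonspecific binding defined with 100 nM C5a.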 As to conditions: [125I]-C5a 0.05 nM, multiple values = duplicate experiments.

Bounds are passed on as bounds.

For orientation: IC50 means the midpoint of a concentration-inhibition curve. With `CCc1cccc(CC)c1-c1cc(OC)c2c(n1)CCCC2OCCNc1cccc2ccccc12` (stereo not drawn), the IC50 in assay [1] was greater than 10 µM. Moreover, the “[125I]-C5a Binding % Inhibition 1 μM” value in assay [2] (test compound 1 μM) was 54%. Further, in assay [2] (test compound 10 μM), the “[125I]-C5a Binding % Inhibition 10 μM” value is given as 84%.
